{"source": "patent US20260382643A1", "about": "“MITOCHONDRIA-TARGETED N-ACETYLCYSTEINE AND ANALOGS” (published 2026)", "key": {"[1]": {"system": "MiaPaCa-2 cells, basal mitochondrial respiration (OCR)", "experiment": "Intact cell mitochondrial oxygen consumption (Seahorse XF-96)"}, "[2]": {"system": "human pancreatic cancer (MiaPaCa-2) cells", "experiment": "Combination effect on cell proliferation (combination index-fraction affected)", "conditions": "Mito10-NAC + NAC"}, "[3]": {"system": "melanoma cancer (UACC-62) cells", "experiment": "Cell proliferation (IncuCyte), melanoma", "conditions": "for sensitivity of melanoma cells: compared with other cancer cells"}, "[4]": {"system": "human pancreatic cancer (MiaPaCa-2) cells", "experiment": "Cell proliferation (IncuCyte Live-Cell Analysis), MiaPaCa-2"}, "[5]": {"system": "human pancreatic cancer (MiaPaCa-2) cells", "experiment": "Cell death (SYTOX Green assay)"}, "[6]": {"system": "human pancreatic cancer (MiaPaCa-2) cells", "experiment": "Intracellular ATP level (luciferase-based assay)", "conditions": "at concentrations inhibiting proliferation (printed 10-20 M), 24 h"}, "mitochondrial complex I": {"biological_target": "mitochondrial complex I (UniProt O00217+O75251+O75306+O75489+P03886+P03891+P03897+P03901+P03905+P03915+P03923+P19404+P28331+P49821)", "experiment": "Mitochondrial complex I-dependent oxygen consumption in permeabilized cells (Seahorse XF-96)"}, "[7]": {"system": "mitochondrial respiratory complex III", "conditions": "several cancer cells including glioblastoma; cited from earlier work"}, "lung cancer": {"system": "lung cancer", "conditions": "mice; cited from earlier work"}, "[8]": {"conditions": "cited from earlier work"}, "[9]": {"system": "monocarboxylate transporter 4 (MCT-4)", "conditions": "cited from earlier work"}, "melanoma": {"system": "melanoma", "conditions": "cited from earlier work"}, "tumor microenvironment": {"system": "tumor microenvironment", "conditions": "cited from earlier work"}, "[10]": {"system": "B-cell lymphoma xenograft", "conditions": "with another OXPHOS inhibitor; cited from earlier work"}, "[11]": {"conditions": "relatively higher concentrations used to inhibit cancer cells; cited from earlier work"}, "MCT-1 transporter": {"system": "MCT-1 transporter", "conditions": "cited from earlier work"}, "[12]": {"conditions": "vs NAC; cited from earlier work"}, "[13]": {"system": "paracetamol toxicity and oxidative stress-induced diseases", "conditions": "cited from earlier work"}, "glioma": {"system": "glioma", "conditions": "neural stem cell-based antiglioma oncolytic virotherapy; cited from earlier work"}, "[14]": {"conditions": "read-out: IC50, cell proliferation, at time when control cells reached ~90% confluence, cell line from FIGS. 4A-4B"}, "[15]": {"conditions": "tumor cell and mice xenograft studies"}}, "note": "pIC50: −log10 of the molar value. Where two headings read alike, the source gives them in different places."}
{"compound": "CC(=O)N[C@@H](CS)C(=O)NCCCCCCCCCC[P+](c1ccccc1)(c1ccccc1)c1ccccc1", "values": [{"measurement": "pIC50", "setting": "[1]; read-out: concentration inhibiting 50% of basal OCR, 24 h treatment", "value": 4.70}, {"measurement": "synergy on proliferation in combination with NAC", "setting": "[2]", "value": "not with NAC"}, {"measurement": "sensitivity of melanoma cells", "setting": "[3]", "value": "more resistant"}, {"measurement": "potency relative to NAC in melanoma cells", "setting": "[3]; vs NAC", "value": "much more potent than NAC"}, {"measurement": "fold difference in antiproliferative potency between NAC and Mito10-NAC", "setting": "[4]; MiaPaCa-2, vs NAC", "value": "1,600 fold"}, {"measurement": "stability during the course of the cell proliferation experiment", "setting": "[4]; inferred from bolus vs fresh addition every 48 h", "value": "relatively stable"}, {"measurement": "pIC50", "setting": "[4]; [14]", "value": 5.02}, {"measurement": "cell toxicity", "setting": "[5]; at 37 μM", "value": "negligible cell toxicity"}, {"measurement": "cell death", "setting": "[5]; at concentrations inhibiting proliferation (printed 10-20 M), 24 h and 48 h", "value": "no effect"}, {"measurement": "effect on intracellular ATP", "setting": "[6]", "value": "no effect"}, {"measurement": "effect on mitochondrial (complex I-induced) respiration", "setting": "mitochondrial complex I; MiaPaCa-2", "value": "inhibits mitochondrial complex I-induced respiration"}, {"measurement": "pIC50", "setting": "mitochondrial complex I; read-out: IC50, complex I-induced oxygen consumption, direct injection, permeabilized cells", "value": 4.43}]}
{"compound": "CC(=O)N[C@@H](CS)C(=O)O", "values": [{"measurement": "pIC50", "setting": "[1]; read-out: IC50, basal OCR, 24 h treatment", "value": "< 1.00"}, {"measurement": "effect on mitochondria and respiratory complex III", "setting": "[7]", "value": "transient mitochondrial oxidation and inhibition of the mitochondrial respiratory complex III"}, {"measurement": "effect on lung cancer metastasis", "setting": "lung cancer", "value": "enhanced metastasis of lung cancer in mice"}, {"measurement": "distribution", "setting": "[8]; hyperpolarized 13C-MRI", "value": "global distribution of NAC, including to the brain"}, {"measurement": "[13C] GSH levels", "setting": "[8]; [15]", "value": "no detectable levels"}, {"measurement": "metabolites formed", "setting": "[8]; [15]", "value": "forms a [13C] NAC-GSH dimer as well as other homodimers"}, {"measurement": "MCT-4 stromal expression", "setting": "[9]; biomarker of breast cancer", "value": "decreased MCT-4 stromal expression"}, {"measurement": "MCT-4 expression", "setting": "[9]; cancer cell lines", "value": "inhibit monocarboxylate transporter 4 (MCT-4) expression"}, {"measurement": "shape of dose response in melanoma cells", "setting": "[3]; FIGS. 8A-8B", "value": "dose-dependent biphasic effect"}, {"measurement": "sensitivity of melanoma cells", "setting": "[3]", "value": "more resistant"}, {"measurement": "cell death", "setting": "[5]; 24 h treatment", "value": "considerable cell death"}, {"measurement": "cell death", "setting": "[5]; NAC >50 mM", "value": "significant cell death"}, {"measurement": "cell toxicity", "setting": "[5]; at concentrations of 100 mM", "value": "direct cell toxicity"}, {"measurement": "efficacy of adoptive T cell immunotherapy", "setting": "melanoma; melanoma", "value": "improve the efficacy of adoptive T cell immunotherapy to treat melanoma"}, {"measurement": "effectiveness of T cells treated with NAC vs cultured without NAC", "setting": "melanoma; preclinical melanoma model", "value": 33, "unit": "fold"}, {"measurement": "inhibition of complex I-induced oxygen consumption", "setting": "mitochondrial complex I; up to 100 mM, direct injection, permeabilized cells", "value": "about 30%"}]}
{"compound": "CSC[C@H](NC(C)=O)C(=O)NCCCCCCCCCC[P+](c1ccccc1)(c1ccccc1)c1ccccc1", "values": [{"measurement": "pIC50", "setting": "[4]; [14]", "value": 5.72}]}
{"compound": "O=C1C(OCCCCCCCCCC[P+](c2ccccc2)(c2ccccc2)c2ccccc2)=C([C@H]2CC[C@H](c3ccc(Cl)cc3)CC2)C(=O)c2ccccc21", "values": [{"measurement": "immunomodulatory effect in tumor", "setting": "tumor microenvironment; in vivo, listed as Mito10-ATO", "value": "reverse immunosuppression by regulatory T cells by stimulating the function of effector T cells"}, {"measurement": "potency comparison of the efficacy of PD-1 blockade immunotherapy in combination", "setting": "tumor microenvironment; with PD-1 blockade", "value": "improved the efficacy of PD-1 blockade immunotherapy"}]}
{"compound": "Cc1[nH]nc(C(F)(F)F)c1Cc1sc2c(c1C(=O)N1C[C@](C)(O)CO1)c(=O)n(C)c(=O)n2C(C)C", "values": [{"measurement": "combination effect with an OXPHOS inhibitor", "setting": "[10]", "value": "synergistically inhibited the proliferation"}, {"measurement": "side effects", "setting": "[11]", "value": "deleterious side effects"}, {"measurement": "intracellular acidosis and lactate", "setting": "MCT-1 transporter", "value": "enhance intracellular acidosis through increased intracellular lactate and decreased extracellular lactate"}]}
{"compound": "CC(=O)N[C@@H](CS)C(=O)OCCOCCOCCOCC[P+](c1ccccc1)(c1ccccc1)c1ccccc1", "values": [{"measurement": "pIC50", "setting": "[4]; [14]", "value": 4.44}]}
{"compound": "CC(=O)N[C@@H](CS)C(N)=O", "values": [{"measurement": "lipophilicity and permeability", "setting": "[12]", "value": "more lipophilic, membrane-permeable and blood brain barrier permeant"}, {"measurement": "potency in reversing paracetamol toxicity and oxidative stress-induced diseases vs NAC", "setting": "[13]", "value": "more potent than NAC"}, {"measurement": "pIC50", "setting": "[4]; read-out: IC50, cell proliferation (unit printed M), MiaPaCa-2, at ~90% control confluence", "value": 2.37}, {"measurement": "effect on oncolytic virotherapy", "setting": "glioma", "value": "enhance the therapeutic effect of neural stem cell-based antiglioma oncolytic virotherapy"}]}
